According to patent publication US20180141880A1, “Nontoxic and Non-incendiary Obscurant Compositions and Method of Using Same” (published 2018):

Assay: Sublimation using conventional sucrose-chlorate pyrotechnic composition

triethanolamine borate
sublimation temperature: < 250 °C
